From ChEMBL document CHEMBL3046112, “Comparative study of antimicrobial peptides to control citrus postharvest decay caused by Penicillium digitatum” (J Agric Food Chem, 2007)
Values after ≈ are worked out from the molar mass of the structure shown.

System: Escherichia coli
Test: Antimicrobial activity against Escherichia coli DH5[alpha] assessed as microbial growth inhibition after 4 days by microtiter plate assay
Type: functional
Settings: 96 h
In short: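 Microtiter dose–response assay, as previously described. Peptide stocks were 1 mM in 5 mM MOPS pH 7. P. digitatum conidia came from 7–10-day PDA cultures grown at 24 °C and were counted with a hematocytometer. Yeast (YPD, 30 °C) and E. coli (LB, 37 °C) were grown to stationary phase and diluted. Growth was read as OD492 in triplicate. MIC: lowest concentration with no growth after 4 days in all independent experiments, each repeated at least three times.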

SMILES: CC[C@H](C)[C@H](NC(=O)CN)C(=O)NCC(=O)N[C@@H](C)C(=O)N[C@H](C(=O)N[C@@H](CC(C)C)C(=O)N[C@@H](CCCCN)C(=O)N[C@H](C(=O)N[C@@H](CC(C)C)C(=O)N[C@H](C(=O)N[C@H](C(=O)NCC(=O)N[C@@H](CC(C)C)C(=O)N1CCC[C@H]1C(=O)N[C@@H](C)C(=O)N[C@@H](CC(C)C)C(=O)N[C@H](C(=O)N[C@@H](CO)C(=O)N[C@@H](Cc1c[nH]c2ccccc12)C(=O)N[C@H](C(=O)N[C@@H](CCCCN)C(=O)N[C@@H](CCCNC(=N)N)C(=O)N[C@@H](CCCCN)C(=O)N[C@@H](CCCNC(=N)N)C(=O)N[C@@H](CCC(N)=O)C(=O)N[C@@H](CCC(N)=O)C(N)=O)[C@@H](C)CC)[C@@H](C)CC)[C@@H](C)O)[C@@H](C)O)C(C)C)C(C)C [MELITTIN]
- MIC: 8 µM (≈ 22.8 µg/mL)
